B1: Leukocyte immunoglobulin-like receptor subfamily B member 2 (Homo sapiens), Q8N423 (parent)
chain: MTPIVTVLICLGLSLGPRTRVQTGTIPKPTLWAEPDSVITQGSPVTLSCQGSLEAQEYRLYREKKSASWITRIRPELVKNGQFHIPSITWEHTGRYGCQYYSRARWSELSDPLVLVMTGAYPKPTLSAQPSPVVTSGGRVTLQCESQVAFGGFILCKEGEDEHPQCLNSQPHARGSSRAIFSVGPVSPNRRWSHRCYGYDLNSPYVWSSPSDLLELLVPGVSKKPSLSVQPGPVMAPGESLTLQCVSDVGYDRFVLYKEGERDLRQLPGRQPQAGLSQANFTLGPVSRSYGGQYRCYGAHNLSSECSAPSDPLDILITGQIRGTPFISVQPGPTVASGENVTLLCQSWRQFHTFLLTKAGAADAPLRLRSIHEYPKYQAEFPMSPVTSAHAGTYRCYGSLNSDPYLLSHPSEPLELVVSGPSMGSSPPPTGPISTPGPEDQPLTPTGSDPQSGLGRHLGVVIGILVAVVLLLLLLLLLFLILRHRRQGKHWTSTQRKADFQHPAGAVGPEPTDRGLQWRSSPAADAQEENLYAAVKDTQPEDGVEMDTRAAASEAPQDVTYAQLHSLTLRRKATEPPPSQEREPPAEPSIYATLAIH

Variants of: B1
Settings: with hlag_human HLA-G

| Variant | effect of a mutation on the interaction |
| --- | --- |
| Q99R | decreasing interaction strength |
| G392D | decreasing interaction strength |
| Y96A | decreasing interaction strength |
| T93A | decreasing interaction strength |
| R59A;Y61A;W90A;D200A;N202A;Y205A | disrupting interaction strength |
| Y96A;T393E | disrupting interaction strength |
| W90A;D200A;N202A;Y205A | with no effect |
| H92S | decreasing interaction strength |
| Y394A | decreasing interaction strength |
| T393E | decreasing interaction strength |
| G97R | decreasing interaction strength |
| Y96A;G392D | disrupting interaction strength |
| Y96A;Y394A | disrupting interaction strength |
| G94D | disrupting interaction strength |
| Y100G | decreasing interaction strength |
| R95E | decreasing interaction strength |
| R59A;Y61A | disrupting interaction strength |

Reference: IntAct's records for PubMed 24899623
